Among the data in patent publication US20220016215A1, “GIP RECEPTOR AGONIST PEPTIDE COMPOUNDS AND USES THEREOF” (TAKEDA PHAARMACEUTICAL COMPANY LIMITED, priority 2018, published 2022) are EC50 values, retold here.

Protein sequences, listed by entry. Tags and fused reporters are not part of them. Residues count along the entry.
UniProt P43220, 24-463: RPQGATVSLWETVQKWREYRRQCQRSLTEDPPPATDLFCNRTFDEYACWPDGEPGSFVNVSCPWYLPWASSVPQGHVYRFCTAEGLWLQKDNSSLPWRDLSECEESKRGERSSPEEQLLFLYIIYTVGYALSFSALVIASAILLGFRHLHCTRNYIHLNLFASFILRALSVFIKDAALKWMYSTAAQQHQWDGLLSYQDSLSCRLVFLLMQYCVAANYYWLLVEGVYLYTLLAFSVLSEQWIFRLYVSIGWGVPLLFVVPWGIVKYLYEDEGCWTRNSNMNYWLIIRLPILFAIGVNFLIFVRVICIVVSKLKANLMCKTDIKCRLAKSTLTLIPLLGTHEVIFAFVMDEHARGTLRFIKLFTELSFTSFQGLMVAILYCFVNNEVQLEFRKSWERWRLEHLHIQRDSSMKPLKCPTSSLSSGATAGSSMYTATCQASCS

The target in the assay is human GLP-1R (Homo sapiens, UniProt P43220). As to the kind of experiment: Agonist activity on human GLP-1R, CRE-luciferase reporter assay (increase in intracellular cAMP as indicator). On the set-up: expressed in transfected cells. It is filed as cell-based. On the technique in general: Reporter assays use an easily measured gene product as a stand-in for the process of interest.

What is called EC50 is the midpoint of the concentration-response curve. Lower therefore signals a more potent agent.

Consider `CC[C@H](C)[C@H](NC(=O)[C@H](CO)NC(=O)[C@H](Cc1ccc(O)cc1)NC(=O)[C@H](CC(=O)O)NC(=O)[C@H](CO)NC(=O)[C@@H](NC(=O)[C@H](Cc1ccccc1)NC(=O)[C@@H](NC(=O)CNC(=O)[C@H](CCC(=O)O)NC(=O)[C@@H](C)NC(=O)[C@@H](N)Cc1ccc(O)cc1)[C@@H](C)O)[C@@H](C)CC)C(=O)N[C@@H](C)C(=O)N[C@@H](CCSC)C(=O)N[C@@H](CC(=O)O)C(=O)N[C@@H](CCCCN)C(=O)N[C@H](C(=O)N[C@@H](Cc1c[nH]cn1)C(=O)N[C@@H](CCC(N)=O)C(=O)N[C@@H](CCC(N)=O)C(=O)N[C@@H](CC(=O)O)C(=O)N[C@@H](Cc1ccccc1)C(=O)N[C@H](C(=O)N[C@@H](CC(N)=O)C(=O)N[C@@H](Cc1c[nH]c2ccccc12)C(=O)N[C@@H](CC(C)C)C(=O)N[C@@H](CC(C)C)C(=O)N[C@@H](C)C(=O)N[C@@H](CCC(N)=O)C(=O)N[C@@H](CCCCN)C(=O)N1CCC[C@H]1C(=O)N[C@@H](CO)C(=O)N[C@@H](CO)C(=O)NCC(=O)N[C@@H](C)C(=O)N1CCC[C@H]1C(=O)N1CCC[C@H]1C(=O)N1CCC[C@H]1C(=O)N[C@@H](CO)C(N)=O)C(C)C)[C@@H](C)CC` [Compound 11], for which the EC50 was 0.832 µM.
